The test system of the test is APOL1 mRNA expression in endothelial cells. The experiment in a line: APOL1 mRNA expression in endothelial cells after stimulation with interferons, TLR/RIG agonists or bacterial DNA. In kind it is cell-based. To be noted: interferon stimulation (FIG. 3A, 3B). From the text: Interferons cause log-fold upregulation of APOL1 gene expression in several cell types. Both type 1 (alpha and beta) interferons and type 2 (gamma) interferon greatly amplifies APOL1 expression in both endothelial cells and podocytes.
HIV is a powerful inducer of APOL1 renal disease in individuals with the renal risk genotype. Other viruses such as parvovirus have been associated with FSGS. Viral sensing stimulates APOL1 expression. Cells have extracellular, endosomal, and cytoplasmic viral sensors such as TLRs, Rig-L1, and others. These genes are potential targets for reducing APOL1 expression.

B1: interferon beta: type 1 interferon (protein, UniProt P01574 22-187, looked up)
Interferon beta: MSYNLLGFLQRSSNFQCQKLLWQLNGRLEYCLKDRMNFDIPEEIKQLQQFQKEDAALTIYEMLQNIFAIFRQDSSSTGWNETIVENLLANVYHQINHLKTVLEEKLEKEDFTRGKLMSSLHLKRYYGRILHYLKAKEYSHCAWTIVRVEILRNFYFINRLTGYLRN
Consider B1, for which the “upregulation of APOL1” value was “up to 30 fold”.

The values are drawn from US10940151B2, “Methods for treating renal disease” (Beth Israel Deaconess Medical Center, Inc., priority 2012, dated 2021).
